The entries are a selection whose mix differs from that of the whole data set. The source made the active and inactive calls. The call rests on the fitted dose curve; in most records, active means well fitted inhibition curve with a large enough effect in the main read-out, with a control signal flat (not every such curve was filed as active); inconclusive means small, poorly fitted or top-dose-only effect, or effect the other way, or a change in a side signal; inactive means no such curve, though single readings can be large or run the other way.

The chains behind the UniProt entries cited, without tags or fusion partners.
UniProt Q99816, whole entry: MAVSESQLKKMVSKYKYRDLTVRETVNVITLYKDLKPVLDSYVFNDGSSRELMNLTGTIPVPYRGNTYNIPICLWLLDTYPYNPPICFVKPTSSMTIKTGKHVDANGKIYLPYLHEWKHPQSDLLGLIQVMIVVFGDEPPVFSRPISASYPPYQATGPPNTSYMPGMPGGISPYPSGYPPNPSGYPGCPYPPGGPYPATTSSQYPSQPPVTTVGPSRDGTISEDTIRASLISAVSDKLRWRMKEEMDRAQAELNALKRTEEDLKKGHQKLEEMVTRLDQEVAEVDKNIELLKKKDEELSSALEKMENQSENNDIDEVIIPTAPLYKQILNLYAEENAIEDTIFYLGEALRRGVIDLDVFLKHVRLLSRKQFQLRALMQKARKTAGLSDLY

The assay addresses Tumor susceptibility gene 101 protein (Homo sapiens) (UniProt Q99816). Put plainly: qHTS Assay for Iinhibitors of HIV-1 Budding by Blocking the Interaction of PTAP/TSG101. Further: % of control where 0% means no effect. As to conditions: Fluorescence polarization, FITC-PTAP peptide / Tsg101 binding; at 115 µM (top of the series). The text has this: NIH Molecular Libraries Probe Production Network [MLPCN] NIH Chemical Genomics Center [NCGC] MLPCN Grant: 1 R03 MH087464-01A1 PI Name: Dr. Eric Freed, NCI NCGC Assay Overview: Stages of the HIV-1 replication cycle, specifically virus assembly and release, provide underexploited targets for the development of novel antiviral inhibitors. The late stages of HIV-1 replication are mediated by the Gag precursor protein, Pr55Gag. Expression of Pr55Gag is both necessary and sufficient for the production of virus-like particles from Gag-expressing cells. The Gag protein hijacks key host proteins involved in endocytic machinery of the host cell to promote endosomal processing and viral budding. The budding process requires a direct interaction between a […] (PTAP) motif in the p6 domain of Gag and the cellular endosomal sorting protein known as Tsg101. […] A fluorescence anisotropy assay has been developed to quantitatively measure the PTAP-Tsg101 interaction which can be used to screen for inhibitors of this interaction.
NCGC Assay Protocol Summary: Two uL of the Tsg101 binding domain in buffer (10 mM HEPES pH 7.5; 0.15 M NaCl, 0.01% Tween 20; 3 mM EDTA;0.1 mM TCEP) was dispensed into Greiner black MB 1536-well plates (final concentration 10 uM). […] Fluorescent polarization was determined using FITC excitation and polarized emission filters on a Perkin Elmer Viewlux. […]
In general terms: In qHTS, concentration-response curves come from the screen itself.
In the case of `CCC(=O)N(c1ccccc1)C1(COC)CCN(CCc2cccs2)CC1`, the activity change, negative = inhibition is inactive: 1.15%. Consider `CCC(=O)N(c1ccccc1)C1(COC)CCN(CCn2nnn(CC)c2=O)CC1`, for which the activity change, negative = inhibition is inactive: -4.2%.

For the origin of these results see PubChem BioAssay AID493005 (National Center for Advancing Translational Sciences (NCATS), 2010).
